Literature values, collected in US20130085131A1, “HETEROCYCLIC COMPOUNDS AND THEIR USES” (Amgen Inc., priority 2010, published 2013).

By UniProt entry, the sequences of proteins in these tests, tags left out. Where a name states a change or a piece, a line headed by the entry shows the natural chain unless it says otherwise.
UniProt P42338: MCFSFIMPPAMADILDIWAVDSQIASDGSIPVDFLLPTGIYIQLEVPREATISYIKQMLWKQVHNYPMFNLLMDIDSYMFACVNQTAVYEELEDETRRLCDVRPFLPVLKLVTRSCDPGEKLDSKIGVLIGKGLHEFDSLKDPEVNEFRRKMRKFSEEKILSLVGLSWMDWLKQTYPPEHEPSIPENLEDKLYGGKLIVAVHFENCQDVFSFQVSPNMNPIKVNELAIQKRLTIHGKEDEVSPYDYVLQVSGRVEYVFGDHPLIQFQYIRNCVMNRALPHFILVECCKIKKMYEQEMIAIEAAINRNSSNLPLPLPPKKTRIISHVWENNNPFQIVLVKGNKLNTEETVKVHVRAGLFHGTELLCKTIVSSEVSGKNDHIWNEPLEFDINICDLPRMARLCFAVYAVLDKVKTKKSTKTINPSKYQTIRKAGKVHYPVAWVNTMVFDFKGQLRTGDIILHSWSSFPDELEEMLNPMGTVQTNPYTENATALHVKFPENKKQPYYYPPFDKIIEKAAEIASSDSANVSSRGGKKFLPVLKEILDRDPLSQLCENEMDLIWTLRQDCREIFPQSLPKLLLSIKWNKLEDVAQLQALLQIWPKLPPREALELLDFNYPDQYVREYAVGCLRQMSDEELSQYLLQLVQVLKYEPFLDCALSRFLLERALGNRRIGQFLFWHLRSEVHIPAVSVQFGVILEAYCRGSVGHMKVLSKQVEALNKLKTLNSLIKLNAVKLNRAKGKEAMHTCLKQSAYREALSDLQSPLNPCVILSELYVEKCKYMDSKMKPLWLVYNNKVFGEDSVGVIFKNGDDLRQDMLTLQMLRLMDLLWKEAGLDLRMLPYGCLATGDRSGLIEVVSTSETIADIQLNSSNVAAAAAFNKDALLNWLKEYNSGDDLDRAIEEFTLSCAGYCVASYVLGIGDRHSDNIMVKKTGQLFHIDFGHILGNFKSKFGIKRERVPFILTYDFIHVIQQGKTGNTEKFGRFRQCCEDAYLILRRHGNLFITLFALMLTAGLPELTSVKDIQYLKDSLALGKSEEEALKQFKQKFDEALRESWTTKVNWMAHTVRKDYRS

Target: p110β (Homo sapiens, UniProt P42338)
Conditions: on beta; read-out: potency on beta

IC50: 7 nM
SMILES: Cc1cc(C(C)Nc2ccccc2)c2nc(N3CCOCC3)cc(=O)n2c1 (stereo not shown) [TGX-221]
